Consider one substance from patent US6495584B1, “Use of 3-(1H-imidazol-4-ylmethyl)-indan-5-ol in the manufacture of a medicament for intraspinal, intrathecal or epidural administration” (Orion Corporation, priority 1998, dated 2002).

The conditions of this series: hydrochloride salts. The protocol:
The hydrochloride salts of the above compounds were shaken for 90 minutes in a separatory funnel at room temperature with equal volumes (1:1, v/v) of an organic phase (water saturated 1-octanol) and an aqueous solution (0.1 M HCI or 67 mM phosphate buffer pH 7.4), separating the two phases. The quantitations of the amounts of the studied compounds were performed by the RP-HPLC (reverse phase high pressure liquid chromatography) technique. […] As a mobile phase, methanol: 15 mM phosphate buffer pH2 at the ratio 50:50 (v/v) was used.
The partition coefficient (P) is a ratio of the equilibrium concentrations of a solute in a lipophilic environment (1-octanol) and water (P=coct/cwater). The logarithm of the partition coefficient (logP) is used as a lipophilicity parameter for a neutral molecule. D is the partition coefficient measured at a pH where the molecules are partly or totally ionized.

In the case of “clonidine [Compound B, reference compound]”, the “logD (pH 7.4)” value (1-octanol / 67 mM phosphate buffer pH 7.4, room temperature) was found to be 0.73. Besides, where the note is “1-octanol / 0.1 M HCl, room temperature”, the “logD (pH 1)” value is on record as −1.02.
